Experimental data as given in PMC9962283, “The Plant Derived 3-3′-Diindolylmethane (DIM) Behaves as CB2 Receptor Agonist in Prostate Cancer Cellular Models” (International Journal of Molecular Sciences, 2023).

How the values were obtained:
[1] = system: cannabinoid CB1 or CB2 receptors (LNCaP cell membranes); assay: [35S]GTPγS binding in LNCaP cell membranes; type: biochemical, human; conditions: antagonist 10 nM
Protocol: (§1) Binding assays with [^35S]GTPγS were performed with PC3 or LNCaP cell membranes. Both PC3 and LNCaP cells were removed from flasks by scraping and then frozen as a pellet at −20 °C until required. Before use in a radioligand-binding assay, cells were defrosted, diluted in Tris buffer (50 mM Tris–HCl, 50 mM Tris-Base) and homogenized. Protein assays were performed using a Bio-Rad Dc kit (Bio-Rad©, Watford, UK).
(§2) The measurement of ligand-stimulated [^35S]GTPγS binding to cannabinoid CB1 or CB2 receptors was adapted from methods described previously. The assays were carried out with GTPγS-binding buffer (50 mM Tris–HCl, 50 mM Tris-Base, 5 mM MgCl2, 1 mM ethylenediaminetetraacetic acid, 100 mM NaCl, 1 mM dithiothreitol and 0.1% bovine serum albumin) in the presence of [^35S]GTPγS and GDP, in a final volume of 500 μL. Binding was initiated by the addition of [^35S]GTPγS to the wells. Non-specific binding was measured in the presence of 30 μM GTPγS. The drugs were incubated in the assay for 60 min at 30 °C. The reaction was terminated by a rapid vacuum filtration method using Tris-binding buffer, as described previously, and the radioactivity was quantified by liquid scintillation spectrometry. In all the [^35S]GTPγS-binding assays, we used 0.1 nM [^35S]GTPγS, 30 μM GDP and a protein concentration of 40 μg per well for PC3 and LNCaP cell membranes. Compounds were stored at −20 °C in DMSO. […]

[2] = system: cannabinoid CB1 or CB2 receptors (PC3 cell membranes); assay: [35S]GTPγS binding in PC3 cell membranes; type: biochemical, human; conditions: antagonist 10 nM
Protocol: as §1, §2

Cc1c(C(=O)NN2CCCCC2)nn(-c2ccc(Cl)cc2Cl)c1-c1ccc(Cl)cc1 [SR1]
Dextral shift in the log concentration–response curve of DIM [1]: no significant effect | Dextral shift in the log concentration–response curve of CP 55,940 [2]: slight, but significant, dextral shift | Dextral shift in the log concentration–response curve of DIM [2]: no significant dextral shift
